Some compounds may have been tested in ways that are not shown here.
Test system: gemcitabine-resistant strain of pancreatic cancer cell line Capan-1 (ATCC Number: HTB-79)
Assay: Gemcitabine-resistant cell growth inhibition test (CellTiter Glo, total cellular ATP)
Conditions: read-out: Growth inhibitory activity IC50 (μmol/L); gemcitabine-resistant Capan-1, 72 hours of culture, CellTiter Glo luminescence

Row | Substance | IC50 [µmol/L]
1 | ((2R,3S,4S,5R)-5- (4-amino-2- oxopyrimidin-1(2H)- yl)-4-fluoro-3- hydroxytetra hydrothiophen-2-yl) methyl bis(2-((2- (benzyloxy)ethyl) disulfanyl)ethyl) phosphate | < 2
2 | ((2R,3S,4S,5R)-5-(4- amino-2-oxopyrimidin- 1(2H)-yl)-4-fluoro- 3-hydroxytetra hydrothiophen-2-yl) methyl bis(2-((2- isobutyroyloxyethyl) disulfanyl)ethyl) phosphate | 2 to 5
3 | 4-amino-1-((2R,3S,4S,5R)-3- fluoro-4-hydroxy-5-((((RS)-2- oxido-4H-benzo[d][1,3,2] dioxaphoshinin-2-yl)oxy)methyl) tetrahydrothiophen-2-yl) pyrimidin-2(1H)-one | 2 to 5
4 | ((2R,3S,4S,5R)-5-(4- amino-2-oxopyrimidin- 1(2H)-yl)-4-fluoro-3- hydroxytetra hydrothiophen-2-yl) methyl bis(2-((2-acetoxyethyl) disulfanyl)ethyl) phosphate | 5 to 15
